The values below come from patent US20170304288A1, “Formulations of Methionine Aminopeptidase Inhibitors for Treating Infectious Diseases” (Texas Southern University, priority 2013, published 2017).

SMILES strings stand for the structures.

The target in assay [1] is HsMetAP1 (Homo sapiens, UniProt P53582). The experiment in a line: MetAP enzyme inhibition IC50. Format: biochemical. Here is the method:
(§1) The concentration needed for 50% enzyme inhibition (IC50) was determined in 96-well plates at final concentrations ranging from 100 μM to 300 nM for MetAP inhibitors. The enzyme was pre-incubated with compounds for 20 minutes at room temperature followed by addition of substrate. The reaction was incubated at room temperature for 30 min and monitored at 405 nm on a spectrophotometer. The background hydrolysis was subtracted and the data was fitted to a four-parameter logistic (variable slope) equation using GraphPad Prism software.

Assay [2] addresses HsMetAP2 (Homo sapiens, UniProt P50579). The experiment in a line: MetAP enzyme inhibition IC50. Format: biochemical. Here is the method: as §1

`O=C(N/N=C/c1c(O)ccc2ccccc12)c1ccncc1` [Compound 1, 2-hydroxy-1-naphthylaldehyde isonicotinoyl hydrazone]: the “selectivity for MtMetAPs than HsMetAP1” value in assay [1] was “at least 50 fold”. In addition, in assay [2], the “selectivity for MtMetAPs than HsMetAP2” value was “at least 20 fold”.
